Test results taken from ChEMBL document CHEMBL4049386, “Discovery of an Inhibitor of the Proteasome Subunit Rpn11” (J Med Chem, 2017).

Amino acid sequences for entries named in this document (tags omitted).
UniProt O00487, whole entry: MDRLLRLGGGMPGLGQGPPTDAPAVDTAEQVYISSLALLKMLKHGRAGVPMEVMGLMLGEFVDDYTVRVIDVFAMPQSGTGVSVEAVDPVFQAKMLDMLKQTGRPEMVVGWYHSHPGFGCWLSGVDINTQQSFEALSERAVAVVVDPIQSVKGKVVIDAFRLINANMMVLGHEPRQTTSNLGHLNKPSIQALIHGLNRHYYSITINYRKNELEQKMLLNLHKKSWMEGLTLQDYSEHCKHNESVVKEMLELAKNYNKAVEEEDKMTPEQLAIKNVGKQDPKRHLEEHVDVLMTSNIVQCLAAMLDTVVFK

Target: 26S proteasome non-ATPase regulatory subunit 14 (Homo sapiens, UniProt O00487)
Assay: Inhibition of 26S proteasome regulatory subunit RPN11 deubiquitinating activity in beta5 inhibitor MG132 pretreated human HeLa cells expressing UbG76V-GFP assessed as reduction in UbG76V-GFP degradation rate by fluorescence microscopic method
Assay type: cell-based

## CNC(=O)c1cnc2c(SSc3cccc4cc(C(=O)NC)cnc34)cccc2c1
  IC50: 2600 nM
